Measured values: US9765328B2, “Nuclease-resistant DNA analogues” (Arizona Board of Regents on Behalf of Arizona State …, priority 2014, dated 2017)

Tested on: phosphodiesterase I from Crotalus adamanteus venom
Test: Nuclease stability assay, snake venom phosphodiesterase (SVPE)
Settings: 24 hours at 37° C.; denaturing PAGE

## 3′-tctctctctctc-2′
  stability against snake venom phosphodiesterase (SVPE): completely stable
